Paper PMC7017600 (Antiviral research, 2019)

Sequences of proteins named here, by UniProt entry; tags and fusion partners are left off. Residues count along the entry.
UniProt P03186, 1-246: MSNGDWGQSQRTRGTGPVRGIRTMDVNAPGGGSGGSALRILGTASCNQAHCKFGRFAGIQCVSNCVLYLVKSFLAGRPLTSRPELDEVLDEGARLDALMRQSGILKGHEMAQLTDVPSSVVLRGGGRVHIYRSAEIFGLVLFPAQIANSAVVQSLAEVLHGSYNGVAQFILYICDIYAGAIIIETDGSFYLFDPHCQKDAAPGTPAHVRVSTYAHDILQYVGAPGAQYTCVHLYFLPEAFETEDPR

Target: BPLF1 1–246 (Epstein-Barr virus, UniProt P03186)

**Q.** With Basilen blue E-3G as the substance, how does the IC50 read?
**A.** Its IC50 is greater than 10 µM.
